This is an account of results in article PMC7756583, “Hydroxamic Acids Immobilized on Resins (HAIRs): Synthesis of Dual‐Targeting HDAC Inhibitors and HDAC Degraders (PROTACs)” (Angewandte Chemie (International Ed. in English), 2020).

The chains behind the UniProt entries cited, without tags or fusion partners.
UniProt Q9UBN7, whole entry: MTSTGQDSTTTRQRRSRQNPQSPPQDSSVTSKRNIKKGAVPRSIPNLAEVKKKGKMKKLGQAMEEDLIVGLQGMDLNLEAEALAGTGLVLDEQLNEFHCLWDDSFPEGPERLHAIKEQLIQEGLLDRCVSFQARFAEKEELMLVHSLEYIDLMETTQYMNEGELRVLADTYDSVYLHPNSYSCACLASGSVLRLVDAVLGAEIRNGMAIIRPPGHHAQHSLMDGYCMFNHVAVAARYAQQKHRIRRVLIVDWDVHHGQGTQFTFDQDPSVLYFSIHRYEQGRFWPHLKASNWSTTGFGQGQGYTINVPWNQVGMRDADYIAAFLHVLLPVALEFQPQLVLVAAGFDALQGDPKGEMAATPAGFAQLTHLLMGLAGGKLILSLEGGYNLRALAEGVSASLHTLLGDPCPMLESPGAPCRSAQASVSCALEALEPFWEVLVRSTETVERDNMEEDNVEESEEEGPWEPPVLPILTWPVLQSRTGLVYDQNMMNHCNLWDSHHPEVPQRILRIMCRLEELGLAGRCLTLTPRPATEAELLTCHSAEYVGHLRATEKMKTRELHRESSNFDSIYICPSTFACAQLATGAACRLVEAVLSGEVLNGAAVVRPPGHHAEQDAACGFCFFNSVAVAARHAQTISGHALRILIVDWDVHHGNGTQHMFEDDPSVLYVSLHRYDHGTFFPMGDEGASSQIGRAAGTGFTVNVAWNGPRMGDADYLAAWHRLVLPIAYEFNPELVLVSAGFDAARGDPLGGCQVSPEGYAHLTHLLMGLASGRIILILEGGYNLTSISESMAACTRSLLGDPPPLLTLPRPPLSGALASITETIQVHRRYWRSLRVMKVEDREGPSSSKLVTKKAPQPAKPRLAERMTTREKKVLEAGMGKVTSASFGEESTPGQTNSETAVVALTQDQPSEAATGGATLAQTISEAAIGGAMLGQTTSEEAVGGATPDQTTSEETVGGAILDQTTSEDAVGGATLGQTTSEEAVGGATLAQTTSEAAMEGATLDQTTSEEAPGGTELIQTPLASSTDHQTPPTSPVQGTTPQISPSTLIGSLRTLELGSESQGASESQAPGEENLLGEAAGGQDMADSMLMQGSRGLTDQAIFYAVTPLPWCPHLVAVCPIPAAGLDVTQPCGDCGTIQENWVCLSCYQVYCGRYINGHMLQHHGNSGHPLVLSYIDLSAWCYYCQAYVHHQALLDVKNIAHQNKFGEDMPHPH
UniProt Q13547, whole entry: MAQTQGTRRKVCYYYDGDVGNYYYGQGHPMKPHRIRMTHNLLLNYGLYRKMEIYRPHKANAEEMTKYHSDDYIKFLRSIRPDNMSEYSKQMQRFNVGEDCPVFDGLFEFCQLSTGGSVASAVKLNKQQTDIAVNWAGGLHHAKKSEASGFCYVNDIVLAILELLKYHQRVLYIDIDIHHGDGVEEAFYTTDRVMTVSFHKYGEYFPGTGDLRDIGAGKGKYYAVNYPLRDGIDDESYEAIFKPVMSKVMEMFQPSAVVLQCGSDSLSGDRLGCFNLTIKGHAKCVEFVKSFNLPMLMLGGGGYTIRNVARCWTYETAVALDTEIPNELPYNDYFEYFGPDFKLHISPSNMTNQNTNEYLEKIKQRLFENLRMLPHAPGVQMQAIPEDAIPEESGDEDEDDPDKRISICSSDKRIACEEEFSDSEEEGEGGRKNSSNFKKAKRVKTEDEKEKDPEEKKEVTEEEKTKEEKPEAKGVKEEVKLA

The subject of test [1] is human primary glioblastoma cell line U87. In words: MTT cell viability assay, U87. To be noted: read-out: Antiproliferative Effect IC50 U87, 72 h, n≥3, each in triplicate wells. It is filed as cell-based.
Test [2] concerns human primary glioblastoma cell line U251. Briefly: MTT cell viability assay, U251. It is filed as cell-based. The note with it: read-out: Antiproliferative Effect IC50 U251, 72 h, n≥3, each in triplicate wells, n.e.: no effect up to 100 μM. (In general: Tetrazolium assays rely on reduction of a dye to a coloured formazan, in cell work by metabolically active cells.)
The target of a further test is human recombinant HDAC6 (Homo sapiens, UniProt Q9UBN7). Briefly: In-vitro human HDAC6 fluorogenic inhibition assay (ZMAL substrate). It is filed as biochemical. To be noted: read-out: Target Inhibition IC50 HDAC6, n≥2, each in duplicate wells.
Test [3] has as its system human tongue squamous cell carcinoma cell line Cal27. In words: MTT cell viability assay, Cal27. It is filed as cell-based. To be noted: read-out: Antiproliferative Effect IC50 Cal27, 72 h, n≥3, each in triplicate wells.
Another test deals with HDAC1 (Homo sapiens, UniProt Q13547). Briefly: In-vitro human HDAC1 fluorogenic inhibition assay (ZMAL substrate). It is filed as biochemical. To be noted: read-out: Target Inhibition IC50 HDAC1, n≥2, each in duplicate wells.
Test [4] concerns γ-H2AX formation in Cal27 cells. In words: γ-H2AX expression DNA damage assay. In kind it is cell-based, human. The note with it: 24 h.

For `Cn1nnc2c(C(=O)NCc3ccc(C(=O)NO)cc3)ncn2c1=O`, the IC50 (in general, the concentration at which inhibition is half-maximal) in test [1] was 165 µM; in test [2], 98.7 µM; at human recombinant HDAC6, 35 nM; in test [3] it was 16.2 µM; on HDAC1, 705 nM.

Consider `O=C(/C=C/c1ccc(CNC(=O)c2ncn3c(=O)n(CCCl)nnc23)cc1)NO`, for which the IC50 in test [1] amounted to 84.3 µM; in test [2] it was 32.2 µM; on human recombinant HDAC6 it was 51 nM; in test [3], 10.1 µM; on HDAC1, 122 nM. Moreover, the γ-H2AX formation result in test [4] (IC50 (from MTT assay)) was “not different from control”; in test [4] (fivefold IC50 (from MTT assay)), “only weak DNA damage”.
